Test results reported in ChEMBL document CHEMBL5614410, “Design, Synthesis, and Evaluation of p53Y220C Acetylation Targeting Chimeras (AceTACs)” (J Med Chem, 2024).

How the values were obtained:
Assay type in all cases: cell-based
[1] = tested on: CREB-binding protein/Histone acetyltransferase p300/Cellular tumor antigen p53 (Homo sapiens), P04637+Q09472+Q92793 [Y220C]; assay: AceTAC activity at FLAG-tagged p53Y220C mutant (unknown origin) expressed in human NCI-H1299 cells expressing p300/CBP assessed as fold increase in p53 acetylation at lysine 382 residue at 1 uM incubated for 24 hrs by western blot analysis relative to control
[2] = tested on: CREB-binding protein/Histone acetyltransferase p300/Cellular tumor antigen p53 (Homo sapiens), P04637+Q09472+Q92793 [Y220C]; assay: AceTAC activity at FLAG-tagged p53Y220C mutant (unknown origin) expressed in human NCI-H1299 cells expressing p300/CBP assessed as fold increase in p53 acetylation at lysine 382 residue at 10 uM incubated for 4 hrs by western blot analysis relative to control
[3] = tested on: CREB-binding protein/Histone acetyltransferase p300/Cellular tumor antigen p53 (Homo sapiens), P04637+Q09472+Q92793 [Y220C]; assay: AceTAC activity at FLAG-tagged p53Y220C mutant (unknown origin) expressed in human NCI-H1299 cells expressing p300/CBP assessed as fold decrease in E2F1 mRNA expression at 3 uM incubated for 24 hrs by RT-PCR analysis relative to control
[4] = tested on: CREB-binding protein/Histone acetyltransferase p300/Cellular tumor antigen p53 (Homo sapiens), P04637+Q09472+Q92793 [Y220C]; assay: AceTAC activity at FLAG-tagged p53Y220C mutant (unknown origin) expressed in human NCI-H1299 cells expressing p300/CBP assessed as fold increase in TNFRSF10A mRNA expression at 3 uM incubated for 24 hrs by RT-PCR analysis relative to control
[5] = tested on: CREB-binding protein/Histone acetyltransferase p300/Cellular tumor antigen p53 (Homo sapiens), P04637+Q09472+Q92793 [Y220C]; assay: AceTAC activity at FLAG-tagged p53Y220C mutant (unknown origin) expressed in human NCI-H1299 cells expressing p300/CBP assessed as fold increase in DUSP5 mRNA expression at 3 uM incubated for 24 hrs by RT-PCR analysis relative to control

Structure (SMILES): CCn1c2ccc(CNCCOCCOCCOCCC(=O)NCCOc3ccc(CCc4nc5cc(-c6c(C)noc6C)ccc5n4CCN4CCOCC4)cc3F)cc2c2ccc(-c3cc(C)cs3)cc21
- fold change (FC) [1]: 3
- fold change (FC) [2]: 2
- fold change (FC) [3]: 2
- fold change (FC) [4]: > 2
- fold change (FC) [5]: 3
